The values below come from ChEMBL document CHEMBL1156785, “Discovery of 4-[(2S)-2-{[4-(4-chlorophenoxy)phenoxy]methyl}-1-pyrrolidinyl]butanoic acid (DG-051) as a novel leukotriene A4 hydrolase inhibitor of leukotriene B4 biosynthesis” (J Med Chem, 2010).

In assay [1] the target is T1, Leukotriene A-4 hydrolase (Homo sapiens, UniProt P09960).
T1 sequence (P09960 whole entry): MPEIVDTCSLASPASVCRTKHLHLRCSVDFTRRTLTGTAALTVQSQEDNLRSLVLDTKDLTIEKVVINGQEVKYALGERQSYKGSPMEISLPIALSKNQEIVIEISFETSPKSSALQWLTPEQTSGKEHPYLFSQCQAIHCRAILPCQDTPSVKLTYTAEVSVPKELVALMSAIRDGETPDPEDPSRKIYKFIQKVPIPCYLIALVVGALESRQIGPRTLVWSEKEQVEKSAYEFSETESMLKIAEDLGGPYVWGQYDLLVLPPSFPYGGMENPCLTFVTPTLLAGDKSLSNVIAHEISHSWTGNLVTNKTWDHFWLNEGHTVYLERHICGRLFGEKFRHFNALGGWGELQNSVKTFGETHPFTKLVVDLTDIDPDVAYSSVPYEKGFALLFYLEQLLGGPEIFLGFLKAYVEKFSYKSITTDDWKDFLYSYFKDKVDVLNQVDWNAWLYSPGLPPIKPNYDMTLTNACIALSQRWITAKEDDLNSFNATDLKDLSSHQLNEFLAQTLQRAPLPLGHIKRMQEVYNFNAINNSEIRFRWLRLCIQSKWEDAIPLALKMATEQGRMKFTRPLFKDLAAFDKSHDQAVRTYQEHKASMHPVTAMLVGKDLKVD

Assay [2] has as its target T1, Leukotriene A-4 hydrolase. The source holds these as a separate data set.

With `c1ccc(Cc2ccc(OC[C@H]3CCCN3)cc2)cc1`, the IC50 (as a rule, the concentration needed to halve the response being measured) in assay [1] amounted to 449 nM.

In assay [1], `O=C(O)CCCN1CCC[C@@H]1COc1ccc(Oc2ccc(Cl)cc2)cc1` showed a half-maximal inhibitory concentration (IC50) of 33 nM.

In assay [2], `c1ccc(Cc2ccc(OC[C@@H]3CCCN3)cc2)cc1` showed a 50% inhibitory concentration (IC50) of 244 nM.
